Assay results taken from patent publication US5032599A, “N-(pyrrol-l-yl)pyridinamines” (Hoechst-Roussel Pharmaceuticals Inc., priority 1988, dated 1991).

System: [^3 H]-QNB (quinuclidinyl benzilate) binding sites
Assay: [^3H]-QNB displacement assay
Conditions: for IC50: [3H]-QNB displacement; for Ratio W/O Zinc/With Zinc: ratio of IC50 without zinc to IC50 with zinc
[1] = read-out: IC50 W/O Zinc, without zinc
[2] = read-out: IC50 With Zinc, with zinc

CCN(c1ccncc1)n1cccc1Cl
IC50 [1]: 33.4 µM | IC50 [2]: 5.4 µM

CCN(c1ccncc1)n1cccc1Cl.Cl
Ratio W/O Zinc/With Zinc: 6.2

CN(c1ccncc1)n1ccc(C=O)c1
Ratio W/O Zinc/With Zinc: 5.6 | IC50 [2]: 32.9 µM

CN(c1ccncc1)n1cccc1
IC50 [1]: 142 µM | IC50 [2]: 13.2 µM

CN(c1ccncc1)n1cccc1.Cl
Ratio W/O Zinc/With Zinc: 10.7

c1ccn(Nc2ccncc2)c1 [N-(1H-Pyrrol-1-yl)-4-pyridinamine]
Ratio W/O Zinc/With Zinc: 12.2 | IC50 [1]: 367 µM | IC50 [2]: 30.4 µM

CC[C@@H]1C(=O)OC[C@@H]1Cc1cncn1C [Pilocarpine, reference compound]
Ratio W/O Zinc/With Zinc: 3.4 | IC50 [1]: 5.8 µM | IC50 [2]: 1.72 µM

CC(O)c1cccn1N(C)c1ccncc1 (stereo not drawn) [α-methyl-1-[[N-(4-pyridinyl)-N-methyl]amino]-1H-pyrrole-2-methanol maleate]
Ratio W/O Zinc/With Zinc: 7.8 | IC50 [2]: 22 µM

Where a name gives a salt, the structure may show the parent alone. Read-outs that look alike come from different tables or passages of the source.
